From paper PMC3395220 (Journal of Medicinal Chemistry, 2012)

Assays:
[1] = intravenous every two days; ref Literature data; cited from earlier work
Plasma pharmacokinetics = format: in vivo, CD-1 mice; settings: mice, iv 1 mg/kg

For mithramycin [Compound 1], the “Maximum tolerated dose, IV repeated dose q2dx8” value [1] is given as 0.6 mg/kg ^b, the plasma level (Plasma pharmacokinetics; after 5 min) is given as “approximately 2,7 μM” and the plasma level (Plasma pharmacokinetics; after 30 min) is given as “approximately 0,2 μM”. The plasma level (Plasma pharmacokinetics; after 120 min) was “below 0,1 μM”.
